For experiment [1], the target named is PIM-1 (Homo sapiens (Human), UniProt P11309). As to the kind of experiment: PIM-1 Enzyme Assay. Format: biochemical. The conditions noted are these: 35 μM ATP, 0.25 nM PIM-1. As to the method:
The amount of radiolabeled product is then measured by liquid scintillation counting. The final buffer conditions were as follows: 20 mM K^+MOPS, pH 7.4, 10 mM MgCl2, 0.005% Tween-20, 1 mM DTT. […] Incubations were carried out for 60 min at 22° C. and quenched with 75 μL of 200 mM H3PO4, filtered through a Whatman P81 plate and washed (1×200 μL and 5×100 μL ) with 200 mM H3PO4. Liquid scintillation cocktail (50 μL ) was then added per well, and the plate was counted for 30 s/well using a TopCount NXT.
One-μL aliquots of these were then transferred to the assay mixtures above to give a final concentration of DMSO of 2%. […] For each plate, percent of control (POC) values were calculated for each well. IC50's were estimated from the POC's using a standard 4-parameter logistic model. The IC50 is defined as the concentration of inhibitor at which the POC equals 50 for the fitted curve.

The chains behind the UniProt entries cited, without tags or fusion partners.
UniProt P11309, whole entry, species assumed: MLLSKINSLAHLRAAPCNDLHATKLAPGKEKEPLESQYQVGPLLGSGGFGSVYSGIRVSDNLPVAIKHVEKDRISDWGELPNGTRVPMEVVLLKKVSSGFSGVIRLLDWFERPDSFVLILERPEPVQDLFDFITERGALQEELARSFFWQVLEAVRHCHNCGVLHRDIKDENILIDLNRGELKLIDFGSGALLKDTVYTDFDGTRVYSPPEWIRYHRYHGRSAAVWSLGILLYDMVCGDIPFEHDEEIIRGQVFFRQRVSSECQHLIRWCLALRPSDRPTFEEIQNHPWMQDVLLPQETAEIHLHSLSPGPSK

For experiment [2], the target named is recombinant rat PIM-3 (Rattus norvegicus (Rat), UniProt O70444). Put plainly: PIM-3 Enzyme Assay. As to conditions: read-out: PIM-3 IC50; 30 μM ATP, 0.5 nM PIM-3.

Turning to `N[C@H]1CC[C@H](Oc2cccc3ccc(-c4nnc5ccccn45)nc23)CC1` [Example 17, (trans)-4-(2-([1,2,4]Triazolo[4,3-a]pyridin-3-yl)quinolin-8-yloxy)cyclohexanamine], in experiment [1], 0.65 nM corresponded to half-maximal inhibition (IC50).
For `CC(C)(C)COc1cccc2ccc(-c3nnc4ccccn34)nc12` [Example 23, 2-([1,2,4]triazolo[4,3-a]pyridin-3-yl)-8-(neopentyloxy)quinoline], the IC50 (commonly the concentration needed to halve the response being measured) in experiment [2] turned out to be 6 nM.
